Patent US12281335B2, “Methods and compositions for delivery of viral vectors across the blood-brain barrier” (priority 2017, dated 2025)

System: human transferrin binding to AAV8 virions
Test: AAV8 competitive binding assay
Conditions: pre-incubation with AAV8, then human transferrin; pull down with transferrin antibody, qPCR
Procedure: AAV8 competitive binding assay. For THR competitive binding analysis, 10 ul of Protein G resin (Thermo, USA) per system was incubated with 1 ug of human transferrin antibody or goat IgG antibody control at 4° C. overnight. The next day, 1E+10 vg AAV8/luc were firstly incubated with human serum albumin (HSA) of physiological concentration, THR or PEPXT-1 control peptide at different dilutions or PBS on ice for 2 h, and then added the human transferrin at a 1:100 dilution of physiological concentration into the complex and incubated on ice for another 2 h. After that, the mixture was added to the complex of protein G resin and transferrin antibody and incubated at 4° C. overnight. Finally, the complex was stringently washed three times with cold DPBS. DNA from the complex was extracted and applied for qPCR to determine AAV genome copy number per cell using luc specific primers.
THR competed with the human transferrin binding to AAV8 virions. […] To investigate whether THR also binds to the same location of AAV8 virions as human serum proteins, we performed a competitive assay. […] The transferrin antibody was used to pull down transferrin bound AAV8 virions and AAV8 gene copy number was measured by qPCR. […]

**Q.** How did the “inhibition of transferrin binding to AAV8” value turn out when HSA: human serum albumin was run?
**A.** Its value is “blocked transferrin binding to AAV8”.
